Measured values from patent publication US9522903B2 (priority 2010, dated 2016).

Test system: murine model of acute chlorine inhalation injury (CILI)
Settings: Balb/c mice, 400 ppm Cl2 30 min, 30 mg/kg/dose IP q12h from 15 min after exposure, at 24 h

“2-cyano-1-(1-hydroxy-2,2,5,5-tetramethylpyrrolidin-3-yl)-3-(pyridin-3-yl)guanidine” was tested. Which “reduction of the elevation in lung MPO (PMN infiltration) relative to placebo (D5W)” value (p<0.0001, FIG. 5A) did it give?
The value was 52%.

What about the “reduction of histologic lung damage relative to placebo (D5W)” value (p<0.001, FIG. 5B) of the same substance?
Its value is 43%.
